Experimental findings from patent EP0858509B1, “DNA SEQUENCES ENCODING CMH-1, A CYSTEINE PROTEASE INVOLVED IN APOPTOSIS” (VERTEX PHARMACEUTICALS INCORPORATED, priority 1995, dated 1997) are described below.

In this assay the target is T1, CMH-1 (Homo sapiens, UniProt P55210).
T1 construct: we expressed an N-terminal (His)6-tagged CMH-1(Ala24-Gln303) in E. coli; made in house; host or cells: E. coli BL21(DE3), pET-15b
T1 sequence (P55210 24-303): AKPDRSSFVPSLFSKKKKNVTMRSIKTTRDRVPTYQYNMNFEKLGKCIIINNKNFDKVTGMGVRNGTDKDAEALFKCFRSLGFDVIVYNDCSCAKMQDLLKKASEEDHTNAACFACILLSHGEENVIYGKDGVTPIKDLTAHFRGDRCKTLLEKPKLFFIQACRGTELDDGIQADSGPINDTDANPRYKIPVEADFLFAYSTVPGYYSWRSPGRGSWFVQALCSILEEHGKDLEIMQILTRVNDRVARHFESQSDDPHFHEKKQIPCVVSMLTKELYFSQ
T1 sequence (P55210 199-303): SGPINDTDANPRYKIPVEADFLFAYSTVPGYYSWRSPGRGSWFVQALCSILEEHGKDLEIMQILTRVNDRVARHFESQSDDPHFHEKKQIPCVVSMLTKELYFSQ
Kind of assay: Inhibition of in vitro cleavage of 35S-labelled PARP by CMH-1 (SDS-PAGE and fluorography). The format is biochemical. The conditions noted are these: 35S-labelled PARP as substrate, Fig. 4, panel B. Here is the method:
In order to determine the activity of purified CMH-1, we determined whether the protein could cleave ^35[S]-labeled pro-IL-1b and PARP and compared its cleavage activity to purified ICE. We prepared ^35[S]-labeled PARP and IL-1b precursor (pro-IL-1b) by in vitro transcription and translation. Cleavage experiments were carried out as described previously [Y. Gu et al., J. Biol. Chem. (1995)]. Cleavage products were analyzed by SDS-PAGE and fluorography as described in that reference.
This was consistent with the relative sequence identity between CPP32 and cmh-1.

On to DEVD-CHO, for which the “inhibition of the cleavage activity of CMH-1” value is recorded as “inhibited”.
